This assay is described as follows: cells. The note with it: Mus musculus, BaF3.

For one compound, IC50 results are on record in ChEMBL document CHEMBL1212824, “A type-II kinase inhibitor capable of inhibiting the T315I "gatekeeper" mutant of Bcr-Abl” (J Med Chem, 2010).

As for `COc1ccc(Nc2ncnc(-c3cccnc3Nc3cc(NC(=O)c4ccc(CN5CCN(C)CC5)cc4)ccc3C)n2)cc1`, the midpoint of inhibition, the IC50, lay at 500 nM.

Usually IC50 stands for the concentration needed to halve the response being measured. Read a high IC50 as lower potency.
